Key:
MV522 xenograft model = conditions: minimum of 4-hour daily exposure
[1] = combination versus alone
U87MG cells = conditions: on matrix protein fibronectin
LLC tumor model = experiment: Lewis Lung carcinoma (LLC) tumor model; format: in vivo, mice; conditions: N=3

## CNC(=O)c1ccccc1Sc1ccc2c(/C=C/c3ccccn3)n[nH]c2c1 [Compound 1, 6-[2-(methylcarbamoyl)phenylsulfanyl]-3-E-[2-(pyridin-2-yl)ethenyl]indazole]
MV522 xenograft model
  plasma concentration necessary to achieve a 90% tumor growth inhibition: 40 to 60 ng/mL
[1]
  AUC of the compound of formula 1 with docetaxel administration: did not affect the AUC
U87MG cells
  PDGF BB induced cancer cell migration: inhibiting PDGF BB induced cancer cell migration
LLC tumor model
  biologically active concentration (BAC), plasma concentration for 90% of maximum growth inhibition: 55±17 ng/mL
  minimal efficacious concentration (MEC), plasma concentration for 50% maximum growth inhibition: 28 ± 11 ng/mL

Reference: US20040224988A1, “Dosage forms and methods of treatment using VEGFR inhibitors” (Agouron Pharmaceuticals, Inc., priority 2003, published 2004)
